# Laboratory results reported in patent publication US9913827B2, “Bendamustine derivatives and methods of using same” (IGNYTA, INC., priority 2012, dated 2018).
# Tested on: RPMI 8226 (Human Plasmacytoma, Myeloma B Cells)
# Format: in vivo, CB.17 SCID female mice
# Conditions: day 46; 0.5 mg/kg i.v. biwk
smiles,measurement,value
"CC(C)C[C@H](NC(=O)[C@H](Cc1ccccc1)NC(=O)c1cnccn1)B(O)O [Velcade ®, Bortezomib]",% TGI,62*** %
same,No. of CR,0
same,No. of PR,0
same,"Δ mean tumor volume, (mean ± se)",226 ± 35

# Marks after values point to notes of the source that are not given here.
